Our source for the Activity values is ChEMBL document CHEMBL3352119, “SAR studies of differently functionalized chalcones based hydrazones and their cyclized derivatives as inhibitors of mammalian cathepsin B and cathepsin H” (Bioorg Med Chem, 2014).

The experiment deals with Cathepsin B (Capra hircus) (UniProt H9B8T9). Description: Inhibition of goat liver cathepsin B assessed as enzyme activity at 10 uM using BANA substrate pre-incubated 30 mins before substrate addition by colorimetry.

Consider `Brc1ccc(C2CC(c3ccccc3)=NN2c2ccccc2)cc1` (stereo unspecified), for which the Activity was found to be 4.29 nmol/min/mL.
